Data published in US20060058383A1 (priority 2004, published 2006).

Test: Animal studies, toxicity in mice
Conditions: 5 mg/kg, i.v. daily for 5 days

**Q.** For CCOC(=O)C(=O)CBr, which toxicity in mice is on record?
**A.** No obvious toxicity
